1 compound from PubChem BioAssay AID1346984 (Tox21, 2019) can be followed below.

The entries are a selection whose mix differs from that of the whole data set. Some results for these compounds are left out of this collection, so the calls shown say nothing about other tests. Results filed as inconclusive are left out. Activity calls are given as the source filed them. Calls follow the shape of the dose curve; as a rule, active = well fitted activation curve with a large enough effect in the repeat runs; inconclusive = weak or mixed curves; inactive = no such curve, though single readings can be large or run the other way.
% is scaled to controls: 0 for no effect and ±100 for the full control effect.

The assay addresses Nuclear receptor subfamily 1 group I member 2 (Homo sapiens) (UniProt O75469). The assay is described as follows: CYP3A4 induction through human pregnane X receptor (PXR) by small molecules, qHTS assay. Also: nearly all actives have a fitted effect of over 40% in size. As to conditions: DPX-2 HepG2 PXR, CYP3A4-luciferin luminescence, 24 h; at 46.1 µM (top of the series). The source says:
National Center for Advancing Translational Sciences [NCATS]
NIH Chemical Genomics Center [NCGC]
U.S. Environmental Protection Agency [EPA]
National Institutes of Environmental Health Sciences [NIEHS]
National Toxicology Program [NTP]
The Pregnane X receptor (PXR), a ligand activated nuclear receptor plays a critical role in the regulation of genes involved in drug metabolism and transporters. Activation of PXR is responsible for unwanted adverse drug reactions. PXR binds xenobiotics and when compounds interact with PXR enhances the expression of CYP3A genes. Identifying the compounds with the potential for PXR activation and CYP3A4 induction can be of importance in improving the efficacy of drugs with less toxicity and avoiding drug-drug interactions.
DPX-2 (Puracyp, Inc.) cell lines, used for screening against human PXR activation has HepG2 cells co-transfected with a PXR response element and a luciferase construct containing CYP3A4 promoter. […]
DPX-2 cells were dispensed at 2,000 cells per well in 5uL of assay medium into white, solid-bottom 1536-well plates using a Multidrop Combi dispenser (Thermo Scientific). […] Then 5ul One-Glo assay reagent (Promega) was added to each plate by an FRD and following 30 min incubation at room temperature, luciferase activity was quantified on a ViewLux plate reader (Perkin Elmer).
For `CN1CCCC(OC(=O)C(O)(c2ccccc2)c2ccccc2)C1` (stereo unspecified), the activation is inactive: 18.5%.
